## Apparent affinities of Ab-95 variants for a coronavirus HR2 peptide

Source: Engelhart et al. 2022 (doi:10.1038/s41597-022-01779-4), MIT Lincoln Laboratory and A-Alpha Bio; data file from the FLAb repository.

The target is the same throughout: PDVDLGDISGINAS, from the HR2 region of SARS-CoV-2 spike.

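The starting antibody came from a phage panning campaign against this peptide. AAYL52 was designed without a model: most single CDR substitutions and a random sample of double and triple ones. In AlphaSeq, yeast of one mating type display the scFv and yeast of the other type display the target. Binding brings cells together so that they mate, and sequencing counts the barcode pairs among the diploids. Each replicate has its own calibration line, from reference interactions of the BCL2 family. Each pool was mated in three replicate cultures.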

The variants keep the heavy chain, the linker and the frameworks of Ab-95 (scFv order VH, three GGGGS repeats, VL).
VH: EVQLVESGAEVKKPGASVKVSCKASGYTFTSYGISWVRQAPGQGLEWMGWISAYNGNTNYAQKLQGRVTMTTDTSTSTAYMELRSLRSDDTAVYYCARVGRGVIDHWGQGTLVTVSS
VL: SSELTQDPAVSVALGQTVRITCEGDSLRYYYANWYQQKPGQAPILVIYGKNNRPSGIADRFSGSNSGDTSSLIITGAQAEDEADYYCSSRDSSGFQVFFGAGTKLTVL

The parent's light chain CDRs are EGDSLRYYYAN, GKNNRPS, SSRDSSGFQVF; each variant's own CDRs replace them letter for letter.
Values are log10 of the apparent Kd in nM; lower means stronger binding.
Replicates are averaged; those with no signal do not enter the mean.
"nd" marks a missing value. The strain was present, yet no cells mated with the target were sequenced in any replicate, which points to weak or no binding.
As a blank, each scFv also met three strains without target: over library AAYL52, 28% of these pairings were detected, typically at 3.91 and seldom below 2.90.
For reference, the parent read 2.31 as the reference entry and 2.25 as a member of this library.

{"CDR-L1": "EGDSLRLYYAQ", "CDR-L2": "GQNNRPS", "CDR-L3": "SSRDSSGFQVF", "mean log10 Kd (nM)": "5.75", "detected": "1 of 3"}
{"CDR-L1": "PGDSLRYYYAN", "CDR-L2": "VKNNRPS", "CDR-L3": "ESRDSSGFQVF", "mean log10 Kd (nM)": "4.91", "detected": "1 of 3"}
{"CDR-L1": "EGDSLRYYYKY", "CDR-L2": "GKNNRPS", "CDR-L3": "SFRDSSGFQVF", "mean log10 Kd (nM)": "3.40", "detected": "1 of 3"}
{"CDR-L1": "EGDSLRYYYAN", "CDR-L2": "GYNNEPS", "CDR-L3": "SFRDSSGFQVF", "mean log10 Kd (nM)": "nd", "detected": "0 of 3"}
{"CDR-L1": "EGDSLRYYYAK", "CDR-L2": "GKNRRPS", "CDR-L3": "SSADSSGFQVF", "mean log10 Kd (nM)": "2.88", "detected": "3 of 3"}
{"CDR-L1": "EYDSLRYYYAN", "CDR-L2": "GKPNRPS", "CDR-L3": "SSRDISGFQVF", "mean log10 Kd (nM)": "3.87", "detected": "1 of 3"}
{"CDR-L1": "ENDSLRYYAAN", "CDR-L2": "GKNNRPS", "CDR-L3": "SSRDSSLFQVF", "mean log10 Kd (nM)": "4.01", "detected": "2 of 3"}
{"CDR-L1": "EGDSLRYYYAN", "CDR-L2": "VKNTRPS", "CDR-L3": "SSRDSSGFQVT", "mean log10 Kd (nM)": "3.68", "detected": "2 of 3"}
{"CDR-L1": "EGYILRNYYAN", "CDR-L2": "GKNNRPS", "CDR-L3": "SSRDSSGFQVF", "mean log10 Kd (nM)": "3.84", "detected": "3 of 3"}
{"CDR-L1": "EGDSLGYYYAN", "CDR-L2": "GKNNRPS", "CDR-L3": "SSRDSSGFQWF", "mean log10 Kd (nM)": "2.41", "detected": "3 of 3"}
{"CDR-L1": "EGDSLRYYYAN", "CDR-L2": "CKNNRPS", "CDR-L3": "SSRFSSQFQVF", "mean log10 Kd (nM)": "3.44", "detected": "1 of 3"}
{"CDR-L1": "EGDSLRYYYAN", "CDR-L2": "GPNNRPS", "CDR-L3": "SIRDSSGMQVF", "mean log10 Kd (nM)": "4.06", "detected": "2 of 3"}
{"CDR-L1": "EGDSYPYYYAN", "CDR-L2": "GKNNRAS", "CDR-L3": "SSRDSSGFQVF", "mean log10 Kd (nM)": "2.68", "detected": "3 of 3"}
{"CDR-L1": "EGDSLRYCYAN", "CDR-L2": "DKNNRPS", "CDR-L3": "FSRDSSGFQVF", "mean log10 Kd (nM)": "5.07", "detected": "1 of 3"}
{"CDR-L1": "EGDSLRYYYDM", "CDR-L2": "FKNNRPS", "CDR-L3": "SSRDSSGFQVF", "mean log10 Kd (nM)": "3.92", "detected": "2 of 3"}
{"CDR-L1": "EGDSLRYYYLN", "CDR-L2": "GKNNRVS", "CDR-L3": "SSRDSDGFQVF", "mean log10 Kd (nM)": "nd", "detected": "0 of 3"}
{"CDR-L1": "EGDSLRYYYQN", "CDR-L2": "CKNNRPS", "CDR-L3": "SSRWSSGFQVF", "mean log10 Kd (nM)": "4.66", "detected": "3 of 3"}
{"CDR-L1": "EGDSLRYYTAN", "CDR-L2": "GNDNRPS", "CDR-L3": "SSRDSSGFQVF", "mean log10 Kd (nM)": "2.00", "detected": "3 of 3"}
{"CDR-L1": "EGDSLRYYHAP", "CDR-L2": "GKNNRPS", "CDR-L3": "SSRDSTGFQVF", "mean log10 Kd (nM)": "nd", "detected": "0 of 3"}
{"CDR-L1": "EGDSLRPYVAN", "CDR-L2": "GKNNRPS", "CDR-L3": "SSNDSSGFQVF", "mean log10 Kd (nM)": "3.56", "detected": "3 of 3"}
{"CDR-L1": "EGDPLRYYYAN", "CDR-L2": "GKNNRPS", "CDR-L3": "SSRDSSPFQVC", "mean log10 Kd (nM)": "3.24", "detected": "3 of 3"}
{"CDR-L1": "EGDSPRYYYAE", "CDR-L2": "GKNNVPS", "CDR-L3": "SSRDSSGFQVF", "mean log10 Kd (nM)": "3.97", "detected": "3 of 3"}
{"CDR-L1": "FGDSLRYYYFN", "CDR-L2": "GKNNRPS", "CDR-L3": "SSRDSSIFQVF", "mean log10 Kd (nM)": "4.11", "detected": "1 of 3"}
{"CDR-L1": "EGDSLRYYYAN", "CDR-L2": "SKNNRPS", "CDR-L3": "SSRRSSGCQVF", "mean log10 Kd (nM)": "3.49", "detected": "2 of 3"}
{"CDR-L1": "EGDSLRYKYAN", "CDR-L2": "GKNNRPS", "CDR-L3": "SSRDSEGFQVL", "mean log10 Kd (nM)": "1.34", "detected": "3 of 3"}
{"CDR-L1": "EDDSLRYYYAN", "CDR-L2": "GKNNRGS", "CDR-L3": "SSRDSSGFDVF", "mean log10 Kd (nM)": "3.39", "detected": "3 of 3"}

A selection of 2 entries from above:

{"CDR-L1": "EGDSLRYYYKY", "CDR-L2": "GKNNRPS", "CDR-L3": "SFRDSSGFQVF", "mean log10 Kd (nM)": "3.40", "detected": "1 of 3"}
{"CDR-L1": "EGDSLRYYYAN", "CDR-L2": "GPNNRPS", "CDR-L3": "SIRDSSGMQVF", "mean log10 Kd (nM)": "4.06", "detected": "2 of 3"}